Among the data in ChEMBL document CHEMBL2321869, “Ion channels as therapeutic targets: a drug discovery perspective” (J Med Chem, 2013) are Activity and IC50 values, retold here.

Amino acid sequences for entries named in this document (tags omitted).
UniProt O15554, whole entry: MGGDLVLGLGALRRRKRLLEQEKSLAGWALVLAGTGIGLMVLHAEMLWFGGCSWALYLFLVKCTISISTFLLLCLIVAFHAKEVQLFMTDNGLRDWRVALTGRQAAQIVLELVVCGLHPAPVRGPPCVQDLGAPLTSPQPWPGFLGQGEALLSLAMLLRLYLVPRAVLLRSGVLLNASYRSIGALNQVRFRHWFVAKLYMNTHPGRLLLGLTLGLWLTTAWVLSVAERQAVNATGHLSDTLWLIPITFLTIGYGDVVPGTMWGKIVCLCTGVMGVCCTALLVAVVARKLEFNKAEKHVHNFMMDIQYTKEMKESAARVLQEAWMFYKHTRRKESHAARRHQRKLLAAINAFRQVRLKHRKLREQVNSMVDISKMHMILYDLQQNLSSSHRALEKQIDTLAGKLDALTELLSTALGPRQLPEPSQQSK

The IC50 is the concentration that gives 50% inhibition.

SMILES strings stand for the structures.

Assay [1] addresses T1, Gamma-aminobutyric acid receptor subunit alpha-1 (Homo sapiens) (UniProt P14867).
T1 sequence (whole entry): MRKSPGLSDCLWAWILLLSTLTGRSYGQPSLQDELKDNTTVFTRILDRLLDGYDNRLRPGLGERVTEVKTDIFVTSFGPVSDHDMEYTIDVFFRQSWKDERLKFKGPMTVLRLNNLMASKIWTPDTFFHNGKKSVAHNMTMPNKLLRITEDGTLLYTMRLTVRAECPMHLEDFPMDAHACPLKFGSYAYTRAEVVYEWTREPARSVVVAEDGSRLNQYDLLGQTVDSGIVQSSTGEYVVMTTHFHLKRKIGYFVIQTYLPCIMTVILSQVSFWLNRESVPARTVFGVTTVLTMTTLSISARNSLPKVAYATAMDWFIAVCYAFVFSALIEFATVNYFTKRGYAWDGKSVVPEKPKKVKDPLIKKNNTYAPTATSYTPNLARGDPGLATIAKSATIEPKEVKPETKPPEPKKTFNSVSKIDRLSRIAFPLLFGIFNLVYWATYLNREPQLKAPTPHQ
Description: Positive allosteric modulation of GABAA alpha1 (unknown origin) relative to control.

Assay [2] deals with T2, Gamma-aminobutyric acid receptor subunit alpha-3 (Homo sapiens) (UniProt P34903).
T2 sequence (whole entry): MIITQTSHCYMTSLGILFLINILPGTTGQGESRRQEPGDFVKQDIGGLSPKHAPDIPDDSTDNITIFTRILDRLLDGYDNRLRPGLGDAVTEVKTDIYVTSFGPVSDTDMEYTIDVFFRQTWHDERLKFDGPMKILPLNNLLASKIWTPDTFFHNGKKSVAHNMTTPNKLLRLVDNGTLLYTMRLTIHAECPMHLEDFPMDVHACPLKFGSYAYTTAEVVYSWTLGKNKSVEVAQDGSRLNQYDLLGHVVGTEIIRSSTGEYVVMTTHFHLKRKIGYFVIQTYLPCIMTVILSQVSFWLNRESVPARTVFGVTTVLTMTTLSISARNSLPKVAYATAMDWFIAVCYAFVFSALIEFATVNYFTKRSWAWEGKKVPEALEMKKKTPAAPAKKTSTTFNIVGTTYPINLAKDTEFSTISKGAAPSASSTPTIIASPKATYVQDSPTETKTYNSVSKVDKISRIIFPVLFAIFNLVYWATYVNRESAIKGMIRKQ
As to the kind of experiment: Positive allosteric modulation of GABAA alpha3 (unknown origin) relative to control.

Assay [3] deals with T3, Intermediate conductance calcium-activated potassium channel protein 4 (Homo sapiens, UniProt O15554). Description: Inhibition of gardos channel (unknown origin).
The target in assay [4] is T3, Intermediate conductance calcium-activated potassium channel protein 4. Description: Inhibition of Kca 3.1 (unknown origin).
The target of assay [5] is T4, Gamma-aminobutyric acid receptor subunit alpha-5 (Homo sapiens) (UniProt P31644).
T4 sequence (whole entry): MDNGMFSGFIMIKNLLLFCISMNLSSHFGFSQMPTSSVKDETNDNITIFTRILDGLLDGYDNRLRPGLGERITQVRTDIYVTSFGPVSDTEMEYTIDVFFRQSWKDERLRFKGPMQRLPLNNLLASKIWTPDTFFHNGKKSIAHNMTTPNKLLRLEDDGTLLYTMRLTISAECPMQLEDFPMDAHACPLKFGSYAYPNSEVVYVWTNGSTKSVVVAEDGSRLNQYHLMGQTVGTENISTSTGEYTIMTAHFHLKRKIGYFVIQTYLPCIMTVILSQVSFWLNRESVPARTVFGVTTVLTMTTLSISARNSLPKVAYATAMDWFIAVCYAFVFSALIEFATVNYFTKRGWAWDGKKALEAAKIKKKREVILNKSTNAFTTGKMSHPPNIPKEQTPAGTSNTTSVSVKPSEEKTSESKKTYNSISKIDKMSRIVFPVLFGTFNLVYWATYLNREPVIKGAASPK
Description: Positive allosteric modulation of GABAA alpha5 (unknown origin) relative to control.

With `Cc1csc(-c2cc(-c3ccncc3)c3n(c2=O)CCCc2ccncc2-3)n1`, the Activity came to 0% in assay [1] and 45% in assay [2].
In the case of `NC(=O)C(c1ccccc1)(c1ccc(F)cc1)c1ccc(F)cc1` [SENICAPOC], the IC50 in assay [3] amounted to 11 µM; in assay [4], 0.006 µM.
Take `Cc1cc(-c2nncc3c(C(C)(C)C)c(OCc4ncnn4C)nn23)no1`: the Activity in assay [5] is -96%.
